Reference: paper PMC6155683, “Pharmacokinetics Studies of 12 Alkaloids in Rat Plasma after Oral Administration of Zuojin and Fan-Zuojin Formulas” (Molecules : A Journal of Synthetic Chemistry and Natural …, 2017)

Assays:
[1] = Two-compartment model fitting of C–T curves (DAS 2.0); assay type: in vivo, rat
Description: Double peaks in C–T curves were observed repeatedly in the PK study of ZJ and related TCM prescriptions, but explanations to the phenomenon were still ambiguous. Generally, possible reasons for the double peak phenomenon could be summarized as follows: (a) enterohepatic circulation; […] (c) irregular pattern of gastric emptying. […] Moreover, Tmax of the alkaloids after administration of ZJ extract were deferred from that of FZJ administration. […] It probably play a major role in the double peak phenomenon, since the GI motility can affect the drug absorption.

[2] = PK study of the 12 alkaloids in rat plasma after oral administration of ZJ and FZJ extract (LC–MS/MS); assay type: in vivo; settings: for AUC0→t / AUC0→∞ / Cmax / Csec (drug concentration of the secondary peak in C–T curve) / MRT0→t / MRT0→∞ / t1/2: mean ± SD, n = 6
Description: The time schedule included 15 time-points and six rats were sampled at each time-point. All the rats were orally administered with ZJ extract (suspended in water) at a dose of 3.38 g/kg body weight (dosages of the 12 alkaloids were shown in Table S4), equivalent to crude drug dose of 12 g/kg body weight. Blood samples were collected from the suborbital vein of the rats at 10, 20, 30, 60, 90, 120, 180, 240, 300, 330, 360, 480, 720, 1440, 2160 min after administration, and centrifuged immediately at 5000 rpm for 10 min. The plasma samples were stored at −20 °C until analysis.
Similarly, the time schedule of other rats included 15 time-points and six rats were orally administered with FZJ extract at a dose of 3.76 g/kg body weight (also equivalent to crude drug dose of 12 g/kg body weight, Table S4). Blood samples were collected and treated as mentioned above in the PK study of ZJ extract.
PK parameters of the 12 alkaloids including AUC0→t, AUC0→∞, mean retention time (MRT0→t, MRT0→∞), and elimination half-life (t1/2) were calculated with non-compartmental method by DAS 2.0 software (Mathematical Pharmacology Professional Committee of China, Shanghai, China). Maximum plasma drug concentration (Cmax) and time to reach the maximum plasma drug concentration (Tmax) were observed directly from the detected C–T data. The results were expressed as arithmetic mean ± standard deviation (SD).

[3] = Stability of analytes in rat plasma under storage conditions; assay type: physicochemical; settings: n = 6; for Stability RE, 3 freeze-thaw cycles / Stability RE, 30 days at −20 °C: rat plasma; for Stability RE, processed samples' stability: room temperature 24 h
Description: The stabilities of analytes in plasma were assessed by analyzing the QC samples at three concentration levels under the following storage conditions: after three freeze (−20 °C)-thaw (room temperature) cycles; stored at −20 °C for 30 days, and comparing the results with those of freshly prepared QC samples. Stabilities of the processed samples at room temperature for 24 h were also assessed.

[4] = tested on: Caco-2 cell monolayer; settings: cited from earlier work
[5] = Dose modified systemic exposure (AUC0→∞/D, Cmax/D)
Description: Because the alkaloids content in ZJ and FZJ were no longer linear with the proportion of CR and EF after extraction process, AUC0→∞/D (ratio of AUC0→∞ and dose) and Cmax/D (ratio of Cmax and dose) were calculated to estimate the dose modified systemic exposure levels of the 12 alkaloids (Table 3). […] Physicochemical properties of these alkaloids had been calculated in silico to predict their human colon adenocarcinoma cell (Caco-2) permeability according to the three-property based rule (3PRule). Polar surface area (PSA), logarithm of the n-octanol/water distribution coefficient (LogD), molecular weight (MW), hydrogen bond donors (HBD), hydrogen bond acceptors (HBA), number of free rotatable bonds (NRB) and molar solubility (S) of the alkaloids were retrieved from SciFinder® (American Chemical Society).

## evodiamine
[1]; oral FZJ extract
  AIC (Akaike's information criterion method), two-compartment model fitting: 30.067 ± 6.112
  r^2 (correlation coefficient method), two-compartment model fitting: 0.853 ± 0.232
[1]; oral ZJ extract
  AIC (Akaike's information criterion method), two-compartment model fitting: 71.547 ± 6.327
  r^2 (correlation coefficient method), two-compartment model fitting: 0.428 ± 0.169
[2]; oral FZJ extract
  Tmax: 0.5 h
  Tsec (time of the secondary peak in C–T curve): 180 min
  AUC0→t: 10.83 ± 1.77 ng·h/mL
  AUC0→∞: 11.72 ± 2.06 ng·h/mL
  Cmax: 9.10 ± 4.79 ng/mL
  Csec (drug concentration of the secondary peak in C–T curve): 2.21 ± 0.85 ng/mL
  MRT0→t: 2.9718 ± 0.381 h
  MRT0→∞: 4.2445 ± 0.7018 h
  t1/2: 3.798 ± 1.05 h
[2]; oral ZJ extract
  Tmax: 1 h
  Tsec (time of the secondary peak in C–T curve): 300 min
  AUC0→t: 31.71 ± 2.94 ng·h/mL
  AUC0→∞: 31.84 ± 3.11 ng·h/mL
  Cmax: 9.59 ± 4.22 ng/mL
  Csec (drug concentration of the secondary peak in C–T curve): 5.54 ± 3.14 ng/mL
  MRT0→t: 5.2532 ± 0.747 h
  MRT0→∞: 5.9967 ± 0.761 h
  t1/2: 2.3552 ± 1.194 h
[3]; high QC concentration
  Stability RE, 3 freeze-thaw cycles: 14.57%
  Stability RE, 30 days at −20 °C: 12.86%
  Stability RE, processed samples' stability: 2.87%
[3]; low QC concentration
  Stability RE, 3 freeze-thaw cycles: 6.06%
  Stability RE, 30 days at −20 °C: −6.27%
  Stability RE, processed samples' stability: 1.14%
[3]; medium QC concentration
  Stability RE, 3 freeze-thaw cycles: −2.19%
  Stability RE, 30 days at −20 °C: −9.8%
  Stability RE, processed samples' stability: −6.55%
[4]
  Papp: 23.2 ×10⁻⁶ cm/s
[5]; oral FZJ extract
  AUC0→∞/D (ratio of AUC0→∞ and dose): 3.73
  Cmax/D (ratio of Cmax and dose): 2.89
[5]; oral ZJ extract
  AUC0→∞/D (ratio of AUC0→∞ and dose): 8.55
  Cmax/D (ratio of Cmax and dose): 2.57
